One molecule from patent US20120039826A1, “COSMETIC COMPOSITION FOR SKIN LIGHTENING” (priority 2009, published 2012) can be followed below.

The experiment relates to Keratinocytes (HaCaT cells). Put plainly: Keratinocyte differentiation assay. The experiment is classed as cell-based. The settings on record: HaCaT cells cultured with active 24 hours, acridine orange, % of control (control = 100). As for the experimental part: Keratinocyte Differentiation Assay
This is an in vitro cell culture based assay to evaluate the capability of these actives to alter cell differentiation process. Keratinocytes (HaCaT cells—5×10^4 cells/well) were grown in 24 well plates for 24 hours. These proliferating keratinocytes were further cultured with actives for 24 hours. Cells were then washed with PBS and stained with acridine orange in PBS (Sigma Chemical Co, USA). Cells were washed 15 minutes later and viewed using an epi-fluorescent microscope (Olympus BX 50), at 20× magnification, using appropriate excitation and barrier filters, to simultaneously view red and green fluorescence (excitation: 460 nm and emission >515 nm). The entire plate was scanned and the percentage of differentiated keratinocytes (cells with red fluorescence evenly distributed within the cytoplasm) was estimated. Data were represented as % of control. Higher % values indicate increased cell differentiation. The efficacy of various substances in the cell differentiation assay is tabulated below.

Turning to `CC(=O)[O-].[K+]` [Potassium acetate], the “% Differentiation” value is, setting by setting: (concentration 0.002%) 250%; (concentration 0.01%) 253%.
